Laboratory results taken from publication PMC3643951, “Characterization of the S100A1 Protein Binding Site on TRPC6 C-Terminus” (PLoS ONE, 2013).

Molecular target: T1, S100A1 protein, dansyl-labelled (human, UniProt P23297 1-94, dansyl (DNS) label from dansyl chloride, site not stated)
T1 construct: human S100A1; cDNA cloned into pET28b; No tag is mentioned; purification was by Phenyl Sepharose; also called DNS-S100A1; Ca2+-S100A1; source: E. coli BL21, purified (Phenyl Sepharose CL4B, Superdex 75), labelled with dansyl chloride
T1 sequence (looked up): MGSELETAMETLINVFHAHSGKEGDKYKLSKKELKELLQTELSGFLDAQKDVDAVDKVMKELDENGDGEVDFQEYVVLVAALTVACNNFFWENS
Assay: fluorescence polarisation; steady-state fluorescence anisotropy; TRPC6 construct titrated into DNS-S100A1 solution (232 µM as printed) in presence of calcium ions; excitation 340 nm, emission 520 nm
Conditions: both partners purified

B1: TRPC6 C-terminal protein construct (801–878), wild type (domain or fragment, rat, UniProt Q99N78 801-878, looked up)
chain: NKRNEEKKFGILGSHEDLSKFSLDRNQLAHNKQSSTRSSEDFHLNSFSNPPRQYQKIMKRLIKRYVLQAQIDKESDEV
How did the Kd turn out when B1 was run?
The Kd was 310 nM.
